Results on 27 molecules are retold here after US9302989B2 (priority 2010, dated 2016).

Sequences of proteins named here, by UniProt entry; tags and fusion partners are left off. A change or cut given only in a name is not applied to a line headed by its entry.
UniProt P43490: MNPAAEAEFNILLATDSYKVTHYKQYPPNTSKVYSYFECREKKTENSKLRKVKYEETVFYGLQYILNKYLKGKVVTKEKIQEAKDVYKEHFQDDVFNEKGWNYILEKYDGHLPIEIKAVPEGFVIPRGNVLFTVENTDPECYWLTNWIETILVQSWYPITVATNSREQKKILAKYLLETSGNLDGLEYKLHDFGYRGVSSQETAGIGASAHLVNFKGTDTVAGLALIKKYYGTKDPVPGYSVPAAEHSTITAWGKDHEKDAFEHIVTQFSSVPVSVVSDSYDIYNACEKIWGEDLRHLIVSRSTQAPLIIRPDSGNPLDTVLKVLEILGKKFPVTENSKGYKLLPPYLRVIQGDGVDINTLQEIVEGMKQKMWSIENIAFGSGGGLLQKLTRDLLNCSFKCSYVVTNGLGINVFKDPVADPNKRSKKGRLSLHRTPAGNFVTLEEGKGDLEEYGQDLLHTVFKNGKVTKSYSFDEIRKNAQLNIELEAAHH

The target in the test is NAMPT (Homo sapiens (Human), UniProt P43490). As to conditions: read-out: TR-FRET Binding IC50 (μM) probe 1.
As a reminder, the IC50 is the concentration that gives 50% inhibition. Turning to `O=C(Nc1cnn([C@H]2CCOC2)c1)c1ccc(NC(=O)N2Cc3ccccc3C2)cc1` [Example 136, N-[4-({1-[(3S)-tetrahydrofuran-3-yl]-1H-pyrazol-4-yl}carbamoyl)phenyl]-1,3-dihydro-2H-isoindole-2-carboxamide], the half-maximal inhibitory concentration (IC50) is 0.0616 µM.
As for `O=C(Nc1ccc(C(=O)N2CCN(c3ccccn3)CC2)cc1)N1Cc2ccc(C(F)(F)F)cc2C1` [Example 78, N-(4-{[4-(pyridin-2-yl)piperazin-1-yl]carbonyl}phenyl)-5-(trifluoromethyl)-1,3-dihydro-2H-isoindole-2-carboxamide], the IC50 amounted to 0.0293 µM.
The result for `CC(C)S(=O)(=O)N1CCN(c2ccc(NC(=O)N3Cc4ccccc4C3)cc2)CC1` [Example 337, N-{4-[4-(isopropylsulfonyl)piperazin-1-yl]phenyl}-1,3-dihydro-2H-isoindole-2-carboxamide] reads 0.0261 µM; that for `CCOCCN(CCOCC)C(=O)c1ccc(NC(=O)N2Cc3ccccc3C2)cc1` [Example 241, N-{4-[bis(2-ethoxyethyl)carbamoyl]phenyl}-1,3-dihydro-2H-isoindole-2-carboxamide], 0.523 µM; that for `CC(=O)N1CCC(C(=O)N2CCN(c3ccc(NC(=O)N4Cc5ccccc5C4)cc3)CC2)CC1` [Example 500, N-(4-{4-[(1-acetylpiperidin-4-yl)carbonyl]piperazin-1-yl}phenyl)-1,3-dihydro-2H-isoindole-2-carboxamide], 0.182 µM.
As for `O=C(NCc1ccc(Cl)cc1)c1ccc(NC(=O)N2Cc3ccncc3C2)cc1` [Example 286, N-{4-[(4-chlorobenzyl)carbamoyl]phenyl}-1,3-dihydro-2H-pyrrolo[3,4-c]pyridine-2-carboxamide], the IC50 turned out to be 0.00206 µM.
For `COC(=O)c1n[nH]c2ccc(NC(=O)c3ccc(NC(=O)N4Cc5ccccc5C4)cc3)cc12` [Example 93, methyl 5-({4-[(1,3-dihydro-2H-isoindol-2-ylcarbonyl)amino]benzoyl}amino)-1H-indazole-3-carboxylate] the value was 0.0351 µM.
The result for `CC(C)CCNC(=O)c1ccc(NC(=O)N2Cc3ccccc3C2)cc1` [Example 36, N-{4-[(3-methylbutyl)carbamoyl]phenyl}-1,3-dihydro-2H-isoindole-2-carboxamide] reads 0.0157 µM; that for `CC(C)C(=O)N1CC=C(c2ccc(NC(=O)N3Cc4ccccc4C3)cn2)CC1` [Example 334, N-(1′-isobutyryl-1′,2′,3′,6′-tetrahydro-2,4′-bipyridin-5-yl)-1,3-dihydro-2H-isoindole-2-carboxamide], 0.0223 µM.
The result for `COCCOCC(=O)Nc1ccc(NC(=O)N2Cc3ccccc3C2)cc1` [Example 309, N-(4-{[(2-methoxyethoxy)acetyl]amino}phenyl)-1,3-dihydro-2H-isoindole-2-carboxamide] reads 0.0634 µM; that for `O=C(NCCCCCCOc1ccc(Cl)cc1)N1Cc2ccccc2C1` [Example 351, N-[6-(4-chlorophenoxy)hexyl]-1,3-dihydro-2H-isoindole-2-carboxamide], 0.064 µM; that for `O=C(NCCN1CCCC1=O)c1ccc(NC(=O)N2Cc3ccccc3C2)cc1` [Example 94, N-(4-{[2-(2-oxopyrrolidin-1-yl)ethyl]carbamoyl}phenyl)-1,3-dihydro-2H-isoindole-2-carboxamide], 0.0354 µM.
Turning to `CCC(C)(C)NC(=O)c1ccc(NC(=O)N2Cc3ccccc3C2)cc1` [Example 170, N-{4-[(2-methylbutan-2-yl)carbamoyl]phenyl}-1,3-dihydro-2H-isoindole-2-carboxamide], the half-maximal inhibitory concentration (IC50) came to 0.108 µM.
The result for `O=C(NCc1ccccn1)c1ccc(NC(=O)N2Cc3ccc(F)cc3C2)cc1` [Example 8, 5-fluoro-N-{4-[(pyridin-2-ylmethyl)carbamoyl]phenyl}-1,3-dihydro-2H-isoindole-2-carboxamide] reads 0.00488 µM.
The result for `CC(C)(O)CNC(=O)c1ccc(NC(=O)N2Cc3ccccc3C2)cc1` [Example 159, N-{4-[(2-hydroxy-2-methylpropyl)carbamoyl]phenyl}-1,3-dihydro-2H-isoindole-2-carboxamide] reads 0.0858 µM.
Regarding `O=C(Nc1ccc(N2CCN(C(=O)C3CCOC3)CC2)cc1)N1Cc2ccccc2C1` (stereo not drawn) [Example 509, N-{4-[4-(tetrahydrofuran-3-ylcarbonyl)piperazin-1-yl]phenyl}-1,3-dihydro-2H-isoindole-2-carboxamide], the IC50 was found to be 0.211 µM.
For `COc1cc2c(cc1OC)CN(C(=O)Nc1ccc(C(=O)NCCCc3ccccc3)cc1)C2` [Example 268, 5,6-dimethoxy-N-{4-[(3-phenylpropyl)carbamoyl]phenyl}-1,3-dihydro-2H-isoindole-2-carboxamide] the value was 2.85 µM; for `O=C(Nc1ccc(C(=O)N2CCN(c3ccccn3)CC2)cc1)N1Cc2cccnc2C1` [Example 448, N-{4-[(4-pyridin-2-ylpiperazin-1-yl)carbonyl]phenyl}-5,7-dihydro-6H-pyrrolo[3,4-b]pyridine-6-carboxamide], 0.021 µM; for `O=C(NCc1ccccn1)c1ccc(NC(=O)N2Cc3ccccc3C2)cc1` [Example 60, N-{4-[(pyridin-2-ylmethyl)carbamoyl]phenyl}-1,3-dihydro-2H-isoindole-2-carboxamide], 0.0224 µM.
The result for `O=C(NCCc1ccc(F)cc1)c1ccc(NC(=O)N2Cc3ccccc3C2)cc1` [Example 129, N-(4-{[2-(4-fluorophenyl)ethyl]carbamoyl}phenyl)-1,3-dihydro-2H-isoindole-2-carboxamide] reads 0.0567 µM; that for `O=C(NCCCN1CCCC1=O)c1ccc(NC(=O)N2Cc3ccc(F)cc3C2)cc1` [Example 24, 5-fluoro-N-(4-{[3-(2-oxopyrrolidin-1-yl)propyl]carbamoyl}phenyl)-1,3-dihydro-2H-isoindole-2-carboxamide], 0.0123 µM; that for `O=C(Nc1ccc(C(=O)N2CCN(c3ccccc3)CC2)cc1)N1Cc2ccccc2C1` [Example 65, N-{4-[(4-phenylpiperazin-1-yl)carbonyl]phenyl}-1,3-dihydro-2H-isoindole-2-carboxamide], 0.0238 µM.
The result for `O=C(NCCc1cccc(Cl)c1)c1ccc(NC(=O)N2Cc3ccccc3C2)cc1` [Example 149, N-(4-{[2-(3-chlorophenyl)ethyl]carbamoyl}phenyl)-1,3-dihydro-2H-isoindole-2-carboxamide] reads 0.0717 µM; that for `O=C(NCc1ccncn1)c1ccc(NC(=O)N2Cc3ccccc3C2)cc1` [Example 75, N-{4-[(pyrimidin-4-ylmethyl)carbamoyl]phenyl}-1,3-dihydro-2H-isoindole-2-carboxamide], 0.0274 µM; that for `COc1ccccc1N1CCN(C(=O)c2ccc(NC(=O)N3Cc4ccccc4C3)cc2)CC1` [Example 52, N-(4-{[4-(2-methoxyphenyl)piperazin-1-yl]carbonyl}phenyl)-1,3-dihydro-2H-isoindole-2-carboxamide], 0.0197 µM.
For `O=C(NCCc1ccccc1Cl)c1ccc(NC(=O)N2Cc3ccccc3C2)cc1` [Example 105, N-(4-{[2-(2-chlorophenyl)ethyl]carbamoyl}phenyl)-1,3-dihydro-2H-isoindole-2-carboxamide], the IC50 was found to be 0.0397 µM.
For `O=C(NCC1CCOC1)c1ccc(NC(=O)N2Cc3ccccc3C2)cc1` (stereo not drawn) [Example 91, N-{4-[(tetrahydrofuran-3-ylmethyl)carbamoyl]phenyl}-1,3-dihydro-2H-isoindole-2-carboxamide] the value was 0.0342 µM.
